The results in this text go back to ChEMBL document CHEMBL1156794, “Synthesis and antimicrobial evaluation of amphiphilic neamine derivatives” (J Med Chem, 2010).

In one assay the test system is Escherichia coli. The following applies: ATCC 25922.
In a further assay the test system is Acinetobacter lwoffii. The following applies: ATCC 17925.

What is called MIC is the least concentration at which growth counts as inhibited. The low end stands for inhibition by little substance, the high end for a need for much substance. In the case of GENTAMICIN, the values for the MIC with Escherichia coli and against Acinetobacter lwoffii were less than 0.5 µg/mL and 0.5 µg/mL, respectively.
